The numbers were not newly measured in publication PMC9418147, “Identification and structure-based drug design of cell-active inhibitors of interleukin 17A at a novel C-terminal site” (Scientific Reports, 2022), which cites them from elsewhere.

The term Kd denotes a measure of binding affinity in units of concentration. What is called IC50 is the point on the concentration scale where inhibition reaches its midpoint.

In one data set the target is IL17A. Further details: method as in PMID 27184415. To be noted: binds N-terminus of IL17A; cited from earlier work.
In another data set the test system is IL17A signaling in cells. Further details: method as in PMID 27184415. To be noted: read-out: IC50 disrupting cell signaling; cited from earlier work.

As for `CC[C@H](C)[C@H](N)C(=O)N[C@@H](Cc1c[nH]cn1)C(=O)N[C@H](C(=O)N[C@H](C(=O)N[C@H](C(=O)N1CCC[C@H]1C(=O)N[C@@H](C)C(=O)N[C@@H](CC(=O)O)C(=O)N[C@@H](CC(C)C)C(=O)N[C@@H](Cc1c[nH]c2ccccc12)C(=O)N[C@@H](CC(=O)O)C(=O)N[C@@H](Cc1c[nH]c2ccccc12)C(=O)N[C@H](C(=O)N[C@@H](CC(N)=O)C(=O)N[C@@H](CCCCN)C(=O)O)[C@@H](C)CC)[C@@H](C)CC)[C@@H](C)O)C(C)C` [Cmpd 3], the Kd at IL17A is 0.001 µM. Besides, in the data set with IL17A signaling in cells, the IC50 was ~0.15 µM.
